Tested on: A. fumigatus wild-type, ΔmpkA, and ΔcalA strains
Test: Fungistatic activity of caspofungin, plating after 24 hours
Conditions: caspofungin 0.2 μg/ml

## CC[C@H](C)C[C@H](C)CCCCCCCCC(=O)N[C@H]1C[C@@H](O)[C@@H](NCCN)NC(=O)[C@@H]2[C@@H](O)CCN2C(=O)[C@H]([C@H](O)CCN)NC(=O)[C@H]([C@H](O)[C@@H](O)c2ccc(O)cc2)NC(=O)[C@@H]2C[C@@H](O)CN2C(=O)[C@H]([C@@H](C)O)NC1=O [CAS, caspofungin]
  type of activity: fungistatic activity
